The nature of data set [1]: Animal trial: liver enrichment of I-131 radiolabeled Myrcludex B after oral application. It counts as in vivo, male Wistar rats. To be noted: oral gavage, 0.5 MBq, rats sacrificed 3 hours after oral application. How it is done:
The animal study was performed according to local authorities using male Wistar rats with a body weight of about 200 to 250 g. In this study, the tyrosine-modified analogue of the lipopeptide Myrcludex B was labeled with ^131l and encapsulated by the surface-coated nanoparticles as described above. 3 hours after oral administration, the organ distribution was measured by direct counting of the radiolabeled sample. Briefly, three groups (n≥3) of Wistar rats were formed.
Prior to 12 hours of the experiment, the rats were kept without food, but with free access to water. Oral application of the surface-coated nanoparticles and the free peptide drug took place by gavage. […] The rats were sacrificed 3 hours after oral application, the organ tissues were removed, weighed and the radioactivity was measured using a Berthold LB 951 G counter in comparison with standards. Due to the specific accumulation of Myrcludex B in the liver, the liver-associated activity was related to the total injected dose (ID) and expressed as a percentage of the total injected dose per gram of tissue (% ID/g). • Statistical Analyses […]

The conditions of data set [2]: Myrcludex B per se; cited from earlier work.

Regarding Myrcludex B, the “enrichment of Myrcludex B in the liver tissue” value in data set [1] is given as 0.33 %ID/g. For the same substance, in data set [2], the oral bioavailability is given as less than 1%.

Source of the values: patent US20190351069A1, “Coating of Nanoparticle Surfaces with Cyclopeptides for Improving Delivery of Agents Via the Oral Route” (Ruprecht-Karls-Universität Heidelberg, priority 2016, published 2019).
